Source: PubChem BioAssay AID651550 (National Center for Advancing Translational Sciences (NCATS), 2012)
This is a selection; strong and weak results do not stand in their true shares. Active and inactive are the calls of the source. No stated cut-off is given here; in the data, active means activity change below about -80%; inconclusive means mostly about -51% to -80%; inactive means weaker than that.

Target: RAC-alpha serine/threonine-protein kinase (Homo sapiens) (UniProt P31749)
Assay: HTS Assay for Inhibitors of Akt Phophorylation: Primary Screen
Conditions: Neuro2A IGF-stimulated pAkt S473 HTRF, 20 min; at 50 µM; stronger effect = lower value
Text: The serine/threonine protein kinase Akt (protein kinase B) regulates various cellular processes, including cell survival, growth, proliferation, migration and differentiation. It has been well established that Akt is activated through two essential steps involving membrane translocation and phosphorylation. Cytosolic Akt is recruited to the plasma membrane via the interaction between the PH domain and membrane PIP3 produced by phosphoinositide-3 kinase (PI3K) upon growth factor receptor stimulation. The membrane-Akt interaction results in conformational changes of Akt, enabling its activation through phosphorylation at T308 in the kinase domain and at S473 in the C-terminal hydrophobic motif by PDK1 and mTOR-rictor complex (mTORC2), respectively. […] These findings indicate that S473 phosphorylation, as an important modulator of Akt activation, may be a valuable drug target for cell growth, survival, proliferation and differentiation. These inhibitors also may have significant therapeutic potential with fewer side effects, especially for the conditions involving hyperactive Akt signaling, such as cancer and Alzheimer's disease.
To this end, a miniaturized assay was developed to be screened against the Molecular Libraries Small Molecule Repository (MLSMR).
NIH Chemical Genomics Center [NCGC]
NIH Molecular Libraries Probe Centers Network [MLPCN]
Assay Submitter (PI): Hee-Yong Kim, National Institute on Alcohol Abuse and Alcoholism
3 uL of Neuro2A cell suspension in DMEM containing 0.5% FBS and […] antibiotics mix was plated in a white solid bottom tissue culture-treated 1536-well plate (Greiner Bio-One, Monroe, NC) at 4,500 cells per well and incubated overnight at 37 deg C. 23 nL/well of compound solutions in DMSO was added with Pintool transfer (Kalypsis, San Diego, CA) at single […] final concentration. Then, the cells were stimulated with 1.5 uL of IGF (6 nM final concentration) and incubated at 37 deg C for 20 min. The reaction was terminated by the addition of 1.5 uL blocking reagent mixed with lysis buffer (1:25 correspondingly) provided with HTRF(R) Phospho Akt (Ser473) kit (Cisbio US, Bedford, MA), with following incubation for 50 min at ambient temperature. The detection HTRF conjugates from the kit were prepared according to the protocol, pre-mixed 1:1 prior to dispensing, and 2 uL/well was added with BioRAPTR FRD dispenser (Beckman Coulter). The assay plates were incubated for 24 hours at ambient temperature, and the HTRF fluorescence was measured using Envision plate reader (PerkinElmer) with excitation at 330nm, emission at 615nm (Eu(3)-Cryptate donor signal) and 665nm (d2 acceptor signal). The ratio of […] was calculated for each well.
On the % scale 0 is the no-effect control and ±100 the full control effect.

SMILES | activity change
CP(=S)(Nn1cnnc1)Oc1ccccc1 (centres undefined) | inactive: -8.31%
COc1ccccc1OP(C)(=O)Nc1ccc(C)cc1 (centres undefined) | inactive: -0.208%
CCOP(C)(=S)SCC(=O)NC(C)(CC)C(=O)O (centres undefined) | inactive: -9.25%
Cc1ccccc1NP(C)(=O)Nc1ccccc1C | inactive: -9.37%
CP(=O)(Nc1ccc2c(c1)OCCO2)Oc1ccccc1 (centres undefined) | inactive: 7.18%
CN(C)CCOC(=O)C(O)(c1ccccc1)C1CCCCC1 (centres undefined) | inactive: -0.956%
COc1ccc(OP(C)(=O)Nc2cccc(Br)c2)cc1 (centres undefined) | inactive: 15.1%
CCN(CC)CCCOC(=O)C(O)(c1ccccc1)C1CCCCC1 (centres undefined) | inactive: -17%
COc1ccccc1OP(C)(=O)Nc1ccc(C)cc1C (centres undefined) | inactive: -2.33%
Cc1c(NP(C)(=O)Oc2ccc(C(C)C)cc2)c(=O)n(-c2ccccc2)n1C (centres undefined) | inactive: -0.296%
COc1ccccc1OP(C)(=O)Nc1ccc(C)c(C)c1 (centres undefined) | inactive: 5.71%
CP(=O)(Oc1ccccc1)N1CCOC1=O (centres undefined) | inactive: 6.49%
CCN(CC)CC(O)COC(=O)C(O)(c1ccccc1)C1CCCCC1 (centres undefined) | inactive: -4.56%
CC(C)(C)c1ccc(OP(C)(=O)O)cc1 | inactive: 6.5%
